Source: ChEMBL document CHEMBL3414532 (J Med Chem, 2015)

Tests used:
[1] = Inhibition of Escherichia coli RNase H pre-incubated for 10 mins before HTS-1 RNA/DNA duplex substrate addition by fluorescence assay
How it was run: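 E. coli RNase H at 4 nM with 6 mM MgCl2 and inhibitor at 1, 7 or 30 μM (2% DMSO final) in 50 mM Tris pH 7.8, 50 mM NaCl. Preincubated 10 min at room temperature, then started with 100 nM HTS-1 (fluorescein/Dabcyl RNA/DNA duplex). Run 5 min at 37 °C, stopped with 33 mM EDTA, fluorescence read at 485/528 nm. IC50 taken at curve midpoint; duplicates, at least two independent experiments.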

[2] = biological target: Gag-Pol polyprotein (Moloney murine leukemia virus isolate Shinnick, UniProt P03355); test: Inhibition of Moloney murine leukemia virus reverse transcriptase polymerase activity using Td100/Pd18 DNA-DNA substrate incubated for 30 mins by fluorescence assay
[3] = Inhibition of Moloney murine leukemia virus reverse transcriptase associated RNase H pre-incubated for 10 mins before HTS-1 RNA/DNA duplex substrate addition by fluorescence assay
How it was run: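 Preincubated 10 min at room temperature, then started with 100 nM HTS-1 duplex. Run 15 min at 37 °C, quenched with 33 mM EDTA, fluorescence read at 485/528 nm. IC50 at curve midpoint; duplicates, at least two experiments.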

| Structure (SMILES) | IC50 [1] | IC50 [2] | IC50 [3] |
| --- | --- | --- | --- |
| O=C1Cc2cc(Cc3ccc(Cl)cc3)ccc2C(=O)N1O | 4.5 µM | 7.1 µM | – |
| O=C1Cc2cc(Cc3ccc(C(F)(F)F)cc3)ccc2C(=O)N1O | 7.2 µM | 6.9 µM | – |
| O=C1Cc2cc(Cc3ccc(C4CC4)cc3)ccc2C(=O)N1O | 3.2 µM | 3.1 µM | – |
| O=C1Cc2cc(Cc3ccc(-c4ccccc4)cc3)ccc2C(=O)N1O | – | 13 µM | – |
| O=C1Cc2cc(Cc3ccc(-c4ccc(F)cc4)cc3)ccc2C(=O)N1O | – | 11 µM | – |
| N#Cc1ccc(-c2ccc(Cc3ccc4c(c3)CC(=O)N(O)C4=O)cc2)cc1 | – | 8.5 µM | – |
| COc1ccc(-c2ccc(Cc3ccc4c(c3)CC(=O)N(O)C4=O)cc2)cc1 | 3.1 µM | 11 µM | > 30 µM |
| CS(=O)(=O)c1ccc(-c2ccc(Cc3ccc4c(c3)CC(=O)N(O)C4=O)cc2)cc1 | – | 3.9 µM | – |
| O=C1Cc2cc(Cc3ccc(-c4ccncc4)cc3)ccc2C(=O)N1O | – | 2.8 µM | – |
